# Legend:
# The chains behind the UniProt entries cited, without tags or fusion partners.
# UniProt Q02127, whole entry: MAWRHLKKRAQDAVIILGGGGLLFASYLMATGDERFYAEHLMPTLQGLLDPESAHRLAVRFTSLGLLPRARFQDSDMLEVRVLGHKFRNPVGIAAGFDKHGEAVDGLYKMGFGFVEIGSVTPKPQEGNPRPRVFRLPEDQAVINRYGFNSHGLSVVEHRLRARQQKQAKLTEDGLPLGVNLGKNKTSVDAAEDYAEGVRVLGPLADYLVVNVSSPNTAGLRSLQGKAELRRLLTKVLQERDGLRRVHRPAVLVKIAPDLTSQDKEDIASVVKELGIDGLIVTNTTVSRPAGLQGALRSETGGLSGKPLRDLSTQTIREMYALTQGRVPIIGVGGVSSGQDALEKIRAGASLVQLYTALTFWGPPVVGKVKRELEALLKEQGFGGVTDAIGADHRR
# human DHODH = human DHODH (Homo sapiens (Human), UniProt Q02127); assay: DHODH Enzymatic Assay; assay type: biochemical; conditions: read-out: hDHODH IC50; purified human DHODH, DCIP absorbance, end-point mode
# Experimental: The following assay is referred to herein as the “DHODH Enzymatic Assay.” To detect DHODH enzyme activities, dichloroindophenol (DCIP) is added as the final electron acceptor in the assay. DCIP can accept electrons from the reduced coenzyme Q generated in the assay, or from dihydroorotate (DHO) via FMN by binding presumably to the ubiquinone pocket. DCIP solutions are blue, with an intense absorbance around 600 nm, but becomes colorless upon reduction (J. Biol. Chem. (1986) 261, 11386). The assay buffer contained […], pH 7.5, 150 mM NaCl, 0.5 mM EDTA, and 0.1% Triton X-100 in MilliQ water. Substrate consisting of 20 mM DHO, 5 mM CoQ6, and 1 mM DCIP in assay buffer, initiates the reaction. The assay is run in end-point mode by quenching the reaction with the potent DHODH inhibitor brequinar. Absorbance measurements were obtained using the BMG Phera Star plate-reading spectrophotomer. Purified human DHODH was purchased from Proteros (cat. No. PR-0044). Chemicals were purchased from Sigma-Aldrich, Teknova, and Avanti Polar Lipids. Liquid handling was performed using Labcyte Echo and Formulatrix Tempest.
# [1] = tested on: MOLM-13 cells (human acute myeloid leukemia cells); assay: MOLM-13 Cellular Assay; conditions: read-out: MOLM-13 IC50, 72 hours exposure, cell viability by CellTiter-Glo
# Experimental: The following assay is referred to herein as the “MOLM-13 Cellular Assay.” MOLM-13 cells (human acute myeloid leukemia cells) were obtained from DSMZ and were maintained in RPMI 1640+Glutamax+25 mM HEPES (Invitrogen, catalog number 72400) supplemented with 10% heat inactivated fetal bovine serum (FBS; Invitrogen, catalog number 16140). The day prior to assay set-up, cells were pelleted, resuspended in fresh media, counted, and cells were plated at 0.4×10^6 cell/mL in a T150 flask. On the day of the assay, cells were pelleted, resuspend in fresh media, counted and seeded at 5,000 cells/well in white opaque 96-well tissue culture treated microplates (Perkin Elmer, catalog number 6005680). Cells were exposed to different concentrations of test compounds at 37° C., 5% CO2 for 72 hours immediately after seeding. Cell viability was acquired on a Perkin Elmer Envision 2104 multilabel reader using the CellTiter-Glo assay (Promega) according to the manufacturer's instructions.
structure (smiles),measurement,setting,value
"CCn1c(CO)nn(-c2cc3c(C(C)C)cn(-c4cc(C)cnc4Cl)c(=O)c3cc2F)c1=O [Example 98, 2-(2-Chloro-5-methylpyridin-3-yl)-6-(4-ethyl-3-(hydroxymethyl)-5-oxo-4,5-dihydro-1H-1,2,4-triazol-1-yl)-7-fluoro-4-isopropylisoquinolin-1(2H)-one]",IC50,human DHODH,14.8 nM
same,IC50,[1],> 100 nM

# — US11505536B2, “Dihydroorotate dehydrogenase inhibitors” (Janssen Biotech, Inc., priority 2019, dated 2022)
